One substance from US8106168B2, “Metalloproteinase binding proteins” (Dyax Corp., priority 2005, dated 2012) can be followed below.

The subject of this test is BT747 breast cancer tumor fragments. Kind of test: BT747 breast tumor growth. Format: in vivo, mouse. As to conditions: small initial tumor size groups; M0038-F01 10, 1 or 0.1 mg/kg Q2d IP; trastuzumab 20 mg/kg. How it is done: Fragments (approximately 1 mm^3) of BT747 breast cancer tumor fragments were implanted into the flanks of female HRLN CB.17 SCID mice. […] All groups were dosed by intraperitoneal (IP) injection. Tumor volume was measured biweekly.
Additionally, a seventh group of ten animals bearing large tumors (288 mm^3) was selected for testing with a combination therapy (M0038-F01, 10 mg/kg Q2d, starting at day 3 plus trastuzumab, 20 mg/kg biweekly, starting at day 4).

Consider “Trastuzumab: Her2-binding antibody [reference compound]”, for which the tumor growth result is “inhibited tumor growth to an extent similar to 10 mg/kg M0038-F01”.
